According to patent US20250188058A1, “NEW FORMS OF N-(5-((6,7-DIMETHOXYQUINOLIN-4-YL)OXY)PYRIDIN-2-YL)-1-PROPYL-4-(2,2,2-TRIFLUOROETHOXY)-1H-PYRAZOLE-3-CARBOXAMIDE HYDROCHLORIDE” (QURIENT CO., LTD., priority 2022, published 2025):

Test: Aqueous solubility of crystalline salts of Q702 (slurried overnight in deionised water, HPLC)
Conditions: crystalline salts slurried overnight in deionised water (pH = 6.8), solution pH measured

CCCn1cc(OCC(F)(F)F)c(C(=O)Nc2ccc(Oc3ccnc4cc(OC)c(OC)cc34)cn2)n1.O=S(=O)(O)c1ccc2ccccc2c1 [Napsylate]
pH of solution: 3.58
